Values of other authors as cited in US10004748B2, “Methods of treating PR-positive, luminal A breast cancer with PI3K inhibitor, pictilisib” (Genentech, Inc., priority 2014, dated 2018).

Amino acid sequences for entries named in this document (tags omitted).
UniProt P03372, whole entry: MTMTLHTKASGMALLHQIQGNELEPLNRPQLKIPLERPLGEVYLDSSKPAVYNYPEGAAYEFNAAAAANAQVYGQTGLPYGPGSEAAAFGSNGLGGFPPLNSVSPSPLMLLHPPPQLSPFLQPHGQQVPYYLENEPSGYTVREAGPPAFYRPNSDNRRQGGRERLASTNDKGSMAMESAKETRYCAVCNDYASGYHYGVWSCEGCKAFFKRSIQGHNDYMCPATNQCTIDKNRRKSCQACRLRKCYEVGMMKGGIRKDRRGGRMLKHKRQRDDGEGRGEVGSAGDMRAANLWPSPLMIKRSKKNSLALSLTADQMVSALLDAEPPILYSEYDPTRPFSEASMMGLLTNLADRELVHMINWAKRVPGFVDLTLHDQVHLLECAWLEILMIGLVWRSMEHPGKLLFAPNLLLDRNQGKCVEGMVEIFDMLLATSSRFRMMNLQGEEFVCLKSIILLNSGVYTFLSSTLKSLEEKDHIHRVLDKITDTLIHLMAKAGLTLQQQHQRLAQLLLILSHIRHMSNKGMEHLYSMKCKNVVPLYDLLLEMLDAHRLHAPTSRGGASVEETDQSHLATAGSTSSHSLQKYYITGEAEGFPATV

Biological target: ER (Homo sapiens, UniProt P03372)
Conditions: greater than that of tamoxifen (Howell et al. 2000); cited from earlier work

## C[C@]12CC[C@@H]3c4ccc(O)cc4C[C@@H](CCCCCCCCC[S+]([O-])CCCC(F)(F)C(F)(F)F)[C@H]3[C@@H]1CC[C@@H]2O (stereo partly drawn) [fulvestrant, (7α,17β)-7-{9-[(4,4,5,5,5-pentafluoropentyl)sulfinyl]nonyl}estra-1,3,5(10)-triene-3,17-diol, reference compound]
  affinity for the ER relative to tamoxifen: approximately 100 fold
